Molecular target: mannose-6-phosphate (M6P) receptor on human cells (Fabry patient skin fibroblasts, HUVECs) (human), P11717
Assay: cell-based or functional assay

By UniProt entry, the sequences of proteins in these tests, tags left out. Where a name states a change or a piece, a line headed by the entry shows the natural chain unless it says otherwise. Residues count along the entry.
mannose-6-phosphate (M6P) receptor on human cells (Fabry patient skin fibroblasts, HUVECs) (human), P11717, UniProt P11717, 41-2491: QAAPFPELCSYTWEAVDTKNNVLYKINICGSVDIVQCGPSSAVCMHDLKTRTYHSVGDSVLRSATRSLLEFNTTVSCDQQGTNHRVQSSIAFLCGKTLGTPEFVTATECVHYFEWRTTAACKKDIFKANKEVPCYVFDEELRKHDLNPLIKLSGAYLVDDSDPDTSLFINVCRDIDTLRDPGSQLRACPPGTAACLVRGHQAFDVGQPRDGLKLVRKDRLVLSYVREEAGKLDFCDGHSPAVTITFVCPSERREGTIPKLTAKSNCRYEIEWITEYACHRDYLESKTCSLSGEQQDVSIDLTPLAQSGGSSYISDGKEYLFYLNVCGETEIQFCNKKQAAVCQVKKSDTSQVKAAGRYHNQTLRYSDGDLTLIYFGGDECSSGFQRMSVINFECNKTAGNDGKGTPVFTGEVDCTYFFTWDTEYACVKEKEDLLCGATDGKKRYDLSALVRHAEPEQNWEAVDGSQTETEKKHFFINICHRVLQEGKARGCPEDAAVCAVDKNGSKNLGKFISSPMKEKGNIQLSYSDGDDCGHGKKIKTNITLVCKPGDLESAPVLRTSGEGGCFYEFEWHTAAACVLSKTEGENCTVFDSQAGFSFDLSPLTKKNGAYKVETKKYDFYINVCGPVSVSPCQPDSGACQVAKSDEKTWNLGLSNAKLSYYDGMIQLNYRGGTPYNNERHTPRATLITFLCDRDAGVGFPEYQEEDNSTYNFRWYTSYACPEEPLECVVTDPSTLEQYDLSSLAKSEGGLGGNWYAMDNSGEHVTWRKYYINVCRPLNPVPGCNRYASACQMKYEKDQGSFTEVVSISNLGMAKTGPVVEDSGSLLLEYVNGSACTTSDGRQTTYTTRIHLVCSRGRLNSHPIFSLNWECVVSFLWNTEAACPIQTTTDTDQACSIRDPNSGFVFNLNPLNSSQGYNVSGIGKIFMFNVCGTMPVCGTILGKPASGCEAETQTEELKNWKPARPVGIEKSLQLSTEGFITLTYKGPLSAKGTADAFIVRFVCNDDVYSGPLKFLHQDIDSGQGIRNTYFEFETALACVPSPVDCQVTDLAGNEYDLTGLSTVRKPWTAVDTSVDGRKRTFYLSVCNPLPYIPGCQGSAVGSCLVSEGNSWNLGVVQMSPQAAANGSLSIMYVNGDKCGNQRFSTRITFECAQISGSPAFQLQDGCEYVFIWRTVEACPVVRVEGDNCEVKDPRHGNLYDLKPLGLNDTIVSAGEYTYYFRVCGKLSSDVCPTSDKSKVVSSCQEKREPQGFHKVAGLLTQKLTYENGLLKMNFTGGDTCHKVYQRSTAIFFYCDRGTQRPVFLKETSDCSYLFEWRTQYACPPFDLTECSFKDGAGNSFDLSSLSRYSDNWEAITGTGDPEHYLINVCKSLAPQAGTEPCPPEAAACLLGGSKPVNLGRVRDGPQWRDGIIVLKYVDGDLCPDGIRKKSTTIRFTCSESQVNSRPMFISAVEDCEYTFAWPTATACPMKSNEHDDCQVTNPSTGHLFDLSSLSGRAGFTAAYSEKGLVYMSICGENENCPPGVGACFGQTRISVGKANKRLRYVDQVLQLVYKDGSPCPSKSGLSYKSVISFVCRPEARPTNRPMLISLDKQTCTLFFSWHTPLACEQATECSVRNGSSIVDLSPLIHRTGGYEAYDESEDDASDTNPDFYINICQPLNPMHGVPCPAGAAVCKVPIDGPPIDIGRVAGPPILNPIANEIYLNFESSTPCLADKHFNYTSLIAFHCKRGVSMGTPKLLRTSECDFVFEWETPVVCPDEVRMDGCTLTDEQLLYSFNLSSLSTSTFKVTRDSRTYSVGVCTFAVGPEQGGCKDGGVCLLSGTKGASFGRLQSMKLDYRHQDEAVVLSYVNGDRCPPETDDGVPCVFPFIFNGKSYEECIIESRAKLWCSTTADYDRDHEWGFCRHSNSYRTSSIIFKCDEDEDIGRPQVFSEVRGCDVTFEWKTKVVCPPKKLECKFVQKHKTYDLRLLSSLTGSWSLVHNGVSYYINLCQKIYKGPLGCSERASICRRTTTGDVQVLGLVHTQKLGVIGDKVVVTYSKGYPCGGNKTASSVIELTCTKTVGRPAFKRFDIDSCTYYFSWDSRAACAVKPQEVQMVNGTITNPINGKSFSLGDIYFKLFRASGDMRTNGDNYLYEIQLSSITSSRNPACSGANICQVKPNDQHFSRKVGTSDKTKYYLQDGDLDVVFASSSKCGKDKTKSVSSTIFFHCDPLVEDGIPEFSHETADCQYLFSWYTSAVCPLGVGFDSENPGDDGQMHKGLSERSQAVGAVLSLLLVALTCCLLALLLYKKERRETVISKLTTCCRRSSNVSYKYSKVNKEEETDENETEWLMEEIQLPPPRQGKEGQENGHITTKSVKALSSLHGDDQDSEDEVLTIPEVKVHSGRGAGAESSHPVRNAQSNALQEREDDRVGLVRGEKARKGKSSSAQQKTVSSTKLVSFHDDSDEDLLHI

intracellular α-gal A enzyme level in HUVECs after overnight culture with 7500 units of α-gal A, against control cells: 10 fold
B1: human α-galactosidase A (α-gal A) produced by stably transfected human fibroblasts, P06280 32-429 (enzyme)
chain: LDNGLARTPTMGWLHWERFMCNLDCQEEPDSCISEKLFMEMAELMVSEGWKDAGYEYLCIDDCWMAPQRDSEGRLQADPQRFPHGIRQLANYVHSKGLKLGIYADVGNKTCAGFPGSFGYYDIDAQTFADWGVDLLKFDGCYCDSLENLADGYKHMSLALNRTGRSIVYSCEWPLYMWPFQKPNYTEIRQYCNHWRNFADIDDSWKSIKSILDWTSFNQERIVDVAGPGGWNDPDMLVIGNFGLSWNQQVTQMALWAIMAAPLFMSNDLRHISPQAKALLQDKDVIAINQDPLGKQGYQLRQGDNFEVWERPLSGLAWAVAMINRQEIGGPRSYTIAVASLGKGVACNPACFITQLLPVKRKLGFYEWTSRLRSHINPTGTVLLQLENTMQMSLKDLL
modifications: here or on the partner: N-linked oligosaccharides carrying sialic acid (approximately 4-6 sialic acids/monomer) and one or more mannose-6-phosphate residues; positions not given
